# Ab-14 heavy chain CDR variants: yeast mating affinities

All variants were tested on one target, the spike HR2 peptide PDVDLGDISGINAS (SARS-CoV-2).

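The starting antibody came from a phage panning campaign against this peptide. The variants were designed computationally from a first round of random CDR variants and then made and measured. Several design methods are mixed in this list. AlphaSeq pools MATa yeast showing the antibodies with MATalpha yeast showing the peptide. The frequency of each diploid, read from paired DNA barcodes, reflects how well the two displayed proteins bind. Scores were corrected for input abundance and mapped to Kd with protein pairs of known affinity run in the same pool. There are six technical replicates.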

The variants keep the light chain, the linker and the frameworks of Ab-14 (scFv order VH, three GGGGS repeats, VL).
VH: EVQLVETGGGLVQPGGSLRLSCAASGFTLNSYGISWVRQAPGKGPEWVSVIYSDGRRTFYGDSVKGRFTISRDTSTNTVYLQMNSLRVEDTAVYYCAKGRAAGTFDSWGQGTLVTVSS
VL: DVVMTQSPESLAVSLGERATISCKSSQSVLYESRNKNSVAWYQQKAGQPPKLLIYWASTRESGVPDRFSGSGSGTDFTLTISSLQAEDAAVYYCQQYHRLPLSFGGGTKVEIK

Each variant is given by its three heavy chain CDRs, as the data file delimits them; those of the parent are GFTLNSYGIS, VIYSDGRRTFYGDSVK, GRAAGTFDS.
This list holds designs with at most six substitutions.
The read-out is the apparent dissociation constant on a log10 scale (nM): the lower, the stronger.
The mean shown is taken over the replicates in which the pair was detected.
Where no diploid with the target was found in that replicate, the entry reads "nd": below detection, most likely a poor binder, though not proof of it.
Some sequences occur more than once in the pool; their replicates are listed entry by entry, parted by semicolons.

The variant GFDLNSYGIS | VIYSDGRRTFYGDSVK | GKNAGTFDS showed 0.17, 0.38, 0.45, -0.29, 0.30, 0.43 (mean 0.24). With GFTLNSYGIS | VIYSDGRRTFYADPVK | GRTAGTFDS the result was nd, nd, 2.47, 0.90, 1.76, 2.05 (mean 1.80). With GFELNSYGIS | VIYSDGRRTFYGDSVK | GNAAGTFDD the result was 1.99, 1.20, 2.38, 1.74, 1.56, 1.88 (mean 1.79). The variant GFELNDYGIS | VIYSDGRRTFYGDAVK | GRTAGTFDS showed nd, 1.39, 1.05, 1.22, 0.92, 2.39 (mean 1.39). The variant GFWLNSYGIS | VIYSDGRRTFYSDQVK | GRAAGTFDS gave 2.06, nd, 2.57, 2.10, 2.02, 2.38 (mean 2.23). The variant GFHLNSYGIS | VIYSDGRRTFYGPSVK | GRAAGTFES gave nd, nd, nd, nd, nd, nd.

The variant GFTLNSYGIS | VIYSDGRRTFYSDAVK | GKEAGTFDS showed -0.25, 1.04, 0.03, 0.31, 0.42, 1.02 (mean 0.43). The variant GFTLNSYGIS | VIYADGRRTFYSDSVK | GRAGGTFDS showed 0.58, 0.42, 0.09, 0.24, 0.54, 0.71 (mean 0.43). The variant GFELMSYGIS | VIYADGRRTFYGDSVK | GRAAGTFDS showed 0.22, 0.01, -0.21, -0.46, 0.00, -0.14 (mean -0.10). The variant GFTLNSYGIS | VIYADGRRTFYGDSVK | GRAAGTFKK showed nd, nd, nd, nd, nd, nd. For GFTLNSYGIS | VIYADGRRTFYGDSVK | GTAAGTFDY, the assay gave 0.22, 1.46, 0.33, 0.91, nd, 0.53 (mean 0.69). The variant GFTLNMYGIS | VIYADGRRTFYGDFVK | GHNAGTFDS gave 0.93, nd, nd, nd, nd, nd.

With GFTLNSYGIS | VIYSDGRRTQYGNSVK | GRAAGTFDS the result was nd, nd, nd, nd, nd, nd. With GFTLNEYGIS | VIYSDGRRTFYSDSVK | GQAAGTFDS the result was 0.60, 0.17, -0.03, 0.10, 0.14, 0.35 (mean 0.22). For GFTLNQYGIS | VIYSDGRRTFYGDSVK | GWAAGTFDS, the assay gave nd, nd, nd, nd, nd, nd. With GFDLNSYGIS | VIYSDGRRTFYGDSVK | GRQAGTFDG the result was 1.07, 0.65, nd, 1.15, 0.10, 0.51 (mean 0.69). The variant GFSLNSYGIS | VIYSDGRRTFYADSVK | GLTAGTFDS showed 1.27, 0.35, 0.31, 0.44, 0.52, 0.38 (mean 0.54). The variant GFDLNSYGIS | VIYSDGRRTFYHDSVK | GRLAGTFDS gave 0.18, -0.15, -0.32, -0.31, -0.10, -0.39 (mean -0.18).

The variant GFTLNSYGIS | VIYSLGRRTFYADSVK | GRAVGTFDS showed nd, nd, nd, nd, nd, nd. The variant GFSLNSYGIS | VIYSDGRRTFYVDSVK | GNAAGTFDS gave 1.66, 0.10, 0.72, 1.44, 0.37, 3.73 (mean 1.34). The variant GFTLNSYGIS | VIYSDGRRTMYSNSVK | GRAAFTFDS gave nd, nd, nd, nd, nd, 2.77. The variant GFDLNSYGIS | VIYSDGRRTFYHDAVK | GRTAGTFDS showed 1.07, 0.33, nd, -0.18, 0.10, 1.10 (mean 0.48). The variant GFSLNSYGIS | VIYSDGRRTFYVDSVK | GNAAGTFDQ gave 0.86, 0.48, 0.41, 0.31, 0.47, 0.71 (mean 0.54). The variant GFTLNDYGIS | VIYSDGRRTFYMDSVK | GRTAGTFDS gave -0.07, -0.01, 0.35, 0.21, 0.61, -0.19 (mean 0.15).

The variant GFTLNEYGIS | VIYSDGRRTFYGDSVK | GRAAGTFRF gave nd, nd, nd, nd, nd, nd. The variant GFQLNDYGIS | VIYSDGRRTFYGDAVK | GRAAGTFDI gave nd, 1.85, 2.18, 0.59, 1.26, 1.47 (mean 1.47). For GFTLNSYGPS | VIYSDGRRTFYSDSVK | GRAGGTFDR, the assay gave nd, nd, nd, nd, nd, nd. The variant GFTLNSYGIS | VIYSDGMRTFYGDSVK | GQAAGTFDL showed nd, 2.70, nd, 0.44, nd, nd (mean 1.57). The variant GFDLDEYGIS | VIYADGRRTFYADSVK | GEAAGTFDS gave 0.01, -0.12, -0.78, -0.45, -0.18, -0.11 (mean -0.27). For GFTLNEYGIS | VIYSDGRRTFYIDSVK | GRAAGTFDS, the assay gave 1.12, 0.26, 0.05, 0.62, 0.91, 0.62; 0.66, 0.58, 0.75, 0.30, 0.53, 0.95 (mean 0.61).

The variant GFTLQSYGIS | VIYADGRRTFYDDSVK | GRAAGTFDS showed 0.77, -0.43, -0.40, nd, -0.06, 0.67 (mean 0.11). With GFTLNSYGIS | VIYSDGRRTFYIDSVK | GRMAGTFDS the result was 1.29, 4.25, nd, nd, 3.68, 2.55 (mean 2.94). With GFTLNDYGIS | VIYSDGRRTFYIDSVK | GRAAGTFWS the result was nd, nd, nd, nd, nd, nd. The variant GFTLNEYGIS | VIYSDGRRTFYGDSVK | GRASVTFDQ showed nd, nd, 1.42, 0.98, nd, 1.49 (mean 1.30). With GFTLNSYGIS | VIYSDGRRTFYGDSVK | GRAAGTFNK the result was nd, nd, nd, nd, nd, nd. The variant EFTLNSYGIS | VIYSDGRRTFYIDSVK | GRIAGTFDS showed nd, nd, nd, nd, nd, nd.

With GFELNSYGIS | VIYSDGRRTFYTDSVK | GLNAGTFDS the result was 0.10, 1.15, -0.29, -0.18, 0.13, -0.56 (mean 0.06). With GFDLNEYGIS | VIYADGRRTFYSDSVK | GEAAGTFDA the result was -0.17, -0.39, -0.75, -0.53, -0.77, -0.46 (mean -0.51). The variant GFTLNSYGIS | VIYSDGRRTFYGDSVD | DRAAGFFDQ gave nd, nd, nd, nd, nd, nd. With GFHLNSYGIS | VIYSDGRRTFYSDSVK | GQAAGTFDS the result was 0.89, 1.58, 0.57, 0.38, 0.68, nd (mean 0.82). The variant GFTLNSYGIS | VIYADGRRTFYGDSVK | GRMAKTFDS showed nd, nd, nd, nd, nd, nd. With GFELNEYGIS | VIYSDGRRTFYGDSVK | GKTAGTFDV the result was -0.01, -0.24, -0.29, -0.29, -0.46, 0.13 (mean -0.19).

The variant GFTLNSYGIS | VIYSDGRRTFYGDSVK | VRAYGTFDS gave nd, 1.88, nd, nd, nd, nd. The variant GYTLNEYGIS | VIYSDGRRTFYTDSVK | GRFAGTFDS showed nd, nd, nd, nd, nd, nd. With GFTLNSYGIS | VAYSDGRRTFYDDSVK | GQLAGTFDS the result was nd, 0.87, nd, 0.81, 3.18, 4.34 (mean 2.30). With GFTLNSYGIS | VIYSDGRRTFYRDNVK | GQEAGTFDT the result was 0.31, 1.00, 0.22, 0.56, 0.64, 1.30 (mean 0.67). The variant GFTLNSYGIS | VIYSDGRRTAYSDDVK | GRAAGTFDS showed 0.77, 0.60, 0.34, 0.68, 0.80, 0.93 (mean 0.69).

Three control strains display no target. For all heavy chain designs, 1% of the pairings with them gave a signal, with a median of 2.08 and one signal in twenty below 0.84, so weak values seen in few replicates may be background.
The authors' rule: three or more of the six replicates give a measured affinity, fewer mean a poor binder.
A sequence measured in both rounds can read differently, since the two assays cover different ranges.

Reference: Li et al. 2023, doi:10.1038/s41467-023-39022-2. File: FLAb, binding data.